Target: T1, human CD20 on Jurkat cells (human, UniProt P11836 1-297)
T1 sequence: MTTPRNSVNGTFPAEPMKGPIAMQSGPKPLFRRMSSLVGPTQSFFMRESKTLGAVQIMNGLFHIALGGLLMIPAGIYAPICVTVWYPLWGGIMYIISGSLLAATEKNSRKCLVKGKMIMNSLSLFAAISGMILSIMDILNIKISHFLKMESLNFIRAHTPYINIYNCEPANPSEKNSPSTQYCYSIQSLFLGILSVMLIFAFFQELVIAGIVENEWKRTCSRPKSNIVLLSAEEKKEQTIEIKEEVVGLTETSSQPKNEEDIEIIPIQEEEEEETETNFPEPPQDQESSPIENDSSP
Test: cell-based or functional assay

B1: mAb15160 (antibody, V domains shown)
VH: EVQLVESGGGLVQPGGSLRLSCSASGFTFSRYAMYWVRQAPGKGLEYVSAISSDGGSTYDADSVKGRFTISRANSKNTLYLQMSSLRAEDTAVYYCVKGLRELLYYYYGMDVWGQGTTVTVSS
VL: DIQMTQSPSSLSASVGDRVTITCRAGQSISSFLNWYQQKPGKAPKLLIYAASSLQSGVPSRFSGSGSGTDFTLTISSLQPEDFATYYCQQSYITPFTFGPGTKVDIKR
- Max cytotoxicity (%), ADCC, NK donor #1, Jurkat/hCD20 cells: 4.6%
- Max cytotoxicity (%), ADCC, NK donor #2, Jurkat/hCD20 cells: 3.1%
- Max cytotoxicity (%), ADCC, NK donor #3, Jurkat/hCD20 cells: 0%
